Data as given in ChEMBL document CHEMBL5726254, “Quinoline carboxamide and quinoline carbonitrile derivatives as mGluR2-negative allosteric modulators, compositions, and their use” (2017).

The chains behind the UniProt entries cited, without tags or fusion partners. Where a name states a change or a piece, a line headed by the entry shows the natural chain unless it says otherwise.
UniProt Q14416: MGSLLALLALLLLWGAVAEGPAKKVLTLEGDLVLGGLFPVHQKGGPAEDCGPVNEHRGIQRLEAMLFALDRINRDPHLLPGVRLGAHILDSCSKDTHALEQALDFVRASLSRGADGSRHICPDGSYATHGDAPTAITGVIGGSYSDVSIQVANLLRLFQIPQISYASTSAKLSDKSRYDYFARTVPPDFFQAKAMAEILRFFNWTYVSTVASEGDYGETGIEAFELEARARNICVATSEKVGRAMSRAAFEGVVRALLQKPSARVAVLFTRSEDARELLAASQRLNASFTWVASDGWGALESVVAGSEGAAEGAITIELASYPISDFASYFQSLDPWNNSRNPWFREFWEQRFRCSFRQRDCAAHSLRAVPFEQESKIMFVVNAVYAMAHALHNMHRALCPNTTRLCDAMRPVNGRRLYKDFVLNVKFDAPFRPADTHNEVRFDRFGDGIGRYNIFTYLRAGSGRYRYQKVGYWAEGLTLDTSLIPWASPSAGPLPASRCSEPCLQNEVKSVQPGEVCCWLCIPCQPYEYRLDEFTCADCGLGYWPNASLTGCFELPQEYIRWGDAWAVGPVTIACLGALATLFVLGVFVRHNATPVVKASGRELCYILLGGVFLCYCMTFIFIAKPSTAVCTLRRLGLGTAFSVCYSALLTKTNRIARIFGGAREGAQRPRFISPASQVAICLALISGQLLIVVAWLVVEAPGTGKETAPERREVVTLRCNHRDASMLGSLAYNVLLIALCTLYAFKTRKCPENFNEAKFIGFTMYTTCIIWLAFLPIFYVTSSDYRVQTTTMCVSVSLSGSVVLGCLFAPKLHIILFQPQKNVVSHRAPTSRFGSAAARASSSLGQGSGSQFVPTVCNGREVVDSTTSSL

Target: Metabotropic glutamate receptor 2 (Homo sapiens, UniProt Q14416)
Assay: Biological Assay: The utility of the compounds in accordance with the present invention as antagonists of metabotropic glutamate receptor activity, in particular mGluR2 activity, may be demonstrated by methodology known in the art. Antagonist constants are determined as follows. The compounds of the present invention were tested in a fluorescence laser imaging plate reader based assay. This assay …
Assay type: cell-based

Row | IC50 | Compound
1 | 159 nM | Cc1ccc2c(-c3ccc(Cl)cc3)cc(C(N)=O)nc2c1
2 | 6 nM | COC(=O)c1cc(-c2ccc(OC)cc2F)c2ccc([C@@H](C)Cc3cnc(C)nc3)cc2n1 (single isomer, unassigned)
3 | 7 nM | COC(=O)c1cc(-c2ccc(OC)cc2F)c2ccc([C@H](C)Cc3cnc(C)nc3)cc2n1 (single isomer, unassigned)

Second part, the compound before the results:

Row | Compound | IC50
4 | C[C@H]1CN[C@H](C(F)(F)F)CN1Cc1ccc2c(-c3ccc(F)cc3)cc(C(N)=O)nc2c1 | 11 nM
5 | CC[C@](O)(c1cn(Cc2ccc3c(Cl)cc(C#N)nc3c2)nn1)C(F)(F)F | 85 nM
6 | C[C@H]1CN[C@@H](C(F)(F)F)CN1Cc1ccc2c(-c3ccc(F)cc3)cc(C(N)=O)nc2c1 | 9 nM
